pEC50: −log10 of the molar value.
Test system: HeLa
Experiment: Cytotoxicity against human HeLa cells after 48 hrs […]
Format: functional, cell-based

## CCn1/c(=C\C=C\C2=[N+](CC)c3cccc4cccc2c34)c2cccc3cccc1c32.[I-]
  pEC50: 6.03
